Test results taken from ChEMBL document CHEMBL1144685, “Naphthamides as novel and potent vascular endothelial growth factor receptor tyrosine kinase inhibitors: design, synthesis, and evaluation” (J Med Chem, 2008).

Protein sequences, listed by entry. Tags and fused reporters are not part of them.
UniProt P35968, whole entry: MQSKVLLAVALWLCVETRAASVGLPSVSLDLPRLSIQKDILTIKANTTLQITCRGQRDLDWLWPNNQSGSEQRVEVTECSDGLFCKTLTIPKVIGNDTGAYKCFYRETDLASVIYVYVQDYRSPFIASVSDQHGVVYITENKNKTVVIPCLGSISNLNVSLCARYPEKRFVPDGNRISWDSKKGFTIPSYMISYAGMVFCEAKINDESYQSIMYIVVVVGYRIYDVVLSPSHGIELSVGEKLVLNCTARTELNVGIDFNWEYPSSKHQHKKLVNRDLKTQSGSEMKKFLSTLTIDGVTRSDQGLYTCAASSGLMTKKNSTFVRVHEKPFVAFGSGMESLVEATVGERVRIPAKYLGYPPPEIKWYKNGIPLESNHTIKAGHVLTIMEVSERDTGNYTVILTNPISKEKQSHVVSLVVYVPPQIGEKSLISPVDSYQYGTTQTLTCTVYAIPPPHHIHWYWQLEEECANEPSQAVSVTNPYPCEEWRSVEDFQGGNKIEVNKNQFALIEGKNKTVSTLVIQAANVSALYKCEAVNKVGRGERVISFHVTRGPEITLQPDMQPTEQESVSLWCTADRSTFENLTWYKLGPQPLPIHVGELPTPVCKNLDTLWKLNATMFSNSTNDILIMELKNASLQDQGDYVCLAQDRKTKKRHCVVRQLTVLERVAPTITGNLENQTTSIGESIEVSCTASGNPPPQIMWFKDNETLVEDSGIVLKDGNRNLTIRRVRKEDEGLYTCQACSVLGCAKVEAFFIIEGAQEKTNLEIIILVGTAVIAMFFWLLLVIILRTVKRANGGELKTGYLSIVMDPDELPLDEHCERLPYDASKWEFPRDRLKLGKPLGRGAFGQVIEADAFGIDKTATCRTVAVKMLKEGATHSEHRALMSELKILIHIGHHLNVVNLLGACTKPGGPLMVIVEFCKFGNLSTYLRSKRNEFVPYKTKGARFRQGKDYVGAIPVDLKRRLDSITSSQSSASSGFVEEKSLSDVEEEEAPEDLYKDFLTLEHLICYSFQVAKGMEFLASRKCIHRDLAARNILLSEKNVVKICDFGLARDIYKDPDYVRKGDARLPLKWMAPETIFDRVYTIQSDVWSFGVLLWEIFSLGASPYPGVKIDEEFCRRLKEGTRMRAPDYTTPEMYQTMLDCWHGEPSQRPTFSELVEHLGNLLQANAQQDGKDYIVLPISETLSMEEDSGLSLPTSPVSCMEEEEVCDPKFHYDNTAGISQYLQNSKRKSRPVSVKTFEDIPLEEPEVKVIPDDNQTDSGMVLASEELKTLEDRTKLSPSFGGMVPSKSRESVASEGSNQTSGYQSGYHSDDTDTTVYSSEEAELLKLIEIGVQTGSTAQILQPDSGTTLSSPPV

Molecular target: Vascular endothelial growth factor receptor 2 (Homo sapiens, UniProt P35968)

COc1cc2nccc(Oc3ccc4c(C(=O)Nc5ccc(Cl)cc5)cccc4c3)c2cc1OC
IC50: 0.5 nM
